Assay outcomes from PubChem BioAssay.
TrxR1 inh = blocks rat thioredoxin reductase 1 | O89049 | recombinant rTrxR1, NADPH fluorescence consumption, selenite substrate | Potency, µM (top dose mostly 114 µM), most hits filed as inhibitors | hit rate 1% among 390,000 | AID 588453; note: nearly all actives have a fitted effect of over 65% in size
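Rat TrxR1 (90 nM in the dispensed reagent) was pre-reduced with 400 uM NADPH for 5 min at room temperature, then incubated with compound for 15 min. After 400 uM selenite was added, NADPH fluorescence (Ex 340/Em 450 nm) was followed for 8 min.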
TrxR1 substrate = is turned over as a substrate by rat TrxR1 | purified TrxR1 substrate turnover, NADPH consumption readout | Potency, µM (top dose mostly 114 µM) | hit rate 0.01% among 390,000 | AID 588456; note: nearly all actives have a fitted effect of over 50% in size
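Rat TrxR1, dispensed at 90 nM, was prereduced with 400 uM NADPH (final) for 5 min at ~22 deg C, then incubated with compound 15 min before 400 uM selenite. A first-read NADPH fluorescence drop versus no-compound background flagged substrates.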
ClpP mod = qHTS Assay for Activators of ClpP. ATP-dependent Clp protease proteolytic subunit (Bacillus subtilis (strain 168)), P80244. Potency, µM (titrated, usually from 57.5 µM). purified B. subtilis ClpP, FRET peptide cleavage, 20 min. hit rate 1.9% among 340,000. AID 651965, 2013; active = well fitted falling curve with a large enough effect; inconclusive = small, poorly fitted or top-dose-only effect; inactive = no such curve, though single readings can be large or run the other way; note: the source files actives as falling curves though it sought activators and does not explain the sign; nearly all actives have a fitted effect of over 65% in size
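Purified B. subtilis ClpP, 10 microg/mL final in Tris/HCl pH8 with KCl, BSA, glycerol and Tween-20, cleaved an Abz/nitrotyrosine-quenched decapeptide. Fluorescence (ex 320, em 430) was read at 0 and 20 min at room temperature. Delta was normalized to 5.8 microM ADEP and DMSO/no-enzyme controls.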
Apoferritin bind = candidate novel general anesthetic via apoferritin binding; P02791; apoferritin/1-aminoanthracene competitive binding, fluorescence; Potency, µM (doses to about 77.5 µM), usual class: inhibitors; hit rate 0.074% among 350,000; note: nearly all actives have a fitted effect of over 20% in size
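Concentration-response curves derived by four-parameter Hill fitting of normalized fluorescence, where compounds displaced 1-AMA from 10 uM horse apoferritin following a brief 10 min room-temperature incubation; propofol titration acted as positive control.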
miR-21 FLuc = miR-21 reporter, rising signal; HeLa miR-21 FLuc reporter, luciferase, 48 h; Potency, µM (titrated, usually from 38.3 µM); 340,000 tested, under 10 active; AID 2288; active = well fitted rising curve with a large enough effect; inconclusive = small, poorly fitted or top-dose-only effect; inactive = no such curve, though single readings can be large or run the other way;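 also: miR-21 action dims this reporter so a rising signal means less miR-21 action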
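HeLa cells endogenously expressing miR-21, stably carrying CMV-driven firefly luciferase with a downstream miR-21 binding site, 2000 cells/well. Titrations up to approximately 40 uM, 48 hours; luciferase luminescence read.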
Numbers stand for hits; - = inactive; ? = inconclusive; . = not tested or not shown; [ ] = remark or other dose. Most compounds without a hit are left out; they make up all but 2.5% or so of the library. Unless noted, calls come from the whole dose curve; as a rule, active = well fitted curve in the direction sought with a large enough effect; inconclusive = small, poorly fitted or top-dose-only effect, or another doubt; inactive = no such curve, though single readings can be large; an effect the other way counts as inactive or inconclusive.

Chains of the proteins cited; added tags and fusions are not shown.
ATP-dependent Clp protease proteolytic subunit (Bacillus subtilis (strain 168)), P80244, UniProt P80244, whole entry, looked up: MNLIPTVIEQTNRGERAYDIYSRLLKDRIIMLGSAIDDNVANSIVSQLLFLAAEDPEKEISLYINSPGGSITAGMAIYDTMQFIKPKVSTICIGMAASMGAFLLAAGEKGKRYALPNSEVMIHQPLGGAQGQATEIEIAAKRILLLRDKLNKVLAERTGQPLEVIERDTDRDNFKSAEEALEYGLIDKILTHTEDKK

SMILES	TrxR1 inh	TrxR1 substrate	ClpP mod	Apoferritin bind	miR-21 FLuc
O=C(NCc1ccc(F)cc1)c1ccc(CS(=O)Cc2ccc(Cl)cc2)o1 (stereo not drawn)	-	-	-	-	-
Cc1cc(NC(=O)NCc2ccc3c(c2)CCN3C(=O)c2ccccc2)ccc1Br	-	-	-	-	-
O=C(COc1ccccc1)NCC(c1ccco1)N1CCN(c2ccc(F)cc2)CC1 (stereo not drawn)	-	-	.	.	.
O=C(COc1ccccc1)NCC(c1ccco1)N1CCN(c2ccccc2F)CC1 (stereo not drawn)	-	-	1.8µM	.	.
COc1ccccc1N1CCN(S(=O)(=O)CCNC(=O)COc2ccc(C(C)C)cc2)CC1	-	-	-	-	-
Cn1ccc(=S)c2ccccc21	22µM	-	.	-	-
COc1ccc(NC(=O)Cc2csc(COc3cccc(C)c3)n2)cc1OC	-	-	-	?	-
O/N=C(/C[n+]1ccsc1)c1ccc(I)cc1	-	-	-	.	.
c1ccc(-c2sc3ccccc3c2-c2ccc(OCCN3CCOCC3)cc2)cc1	-	-	32µM	.	.
CC(C)c1ccc2oc(-c3cc(NC(=O)c4cccnc4)ccc3Cl)nc2c1	-	-	?	?	-
COC(=O)c1ccc(Sc2ccc(C)cc2)c(N)c1	-[11.4 µM]	-[11.4 µM]	28µM	?	-
Cc1ccccc1N1C(=O)c2sc3nc4c(c(=O)n3c2C1=O)CCC4	8.9µM	-	-	-	-
O=C1c2sc3nc4c(c(=O)n3c2C(=O)N1c1ccccc1)CCC4	?	-	-	-	-
O=c1/c(=C\c2cccnc2)sc2nc3ccccc3n12	-	-	-	-	-
O=C1c2sc3nc4ccccc4n3c2C(=O)N1c1ccccc1Cl	4µM	-	-	-	-
COc1cccc(N2CCN(C(=O)c3cnn(-c4ccccc4Cl)c3C3CCN(C(=O)OC(C)(C)C)CC3)CC2)c1	-	-	-	?	?
O=C(NCC(c1ccco1)N1CCc2ccccc2C1)c1ccc(Br)cc1 (stereo not drawn)	-	-	25µM	.	.
Cc1ccc(C(=O)NCC(c2ccco2)N2CCc3ccccc3C2)cc1 (stereo not drawn)	-	-	-	.	.
COC(=O)c1ccc(COC(=O)CCc2nc(-c3ccccc3)c(-c3ccccc3)o2)cc1	-	-	32µM	-	-
COC(=O)c1ccc(COC(=O)c2ccccn2)cc1	-[11.4 µM]	-[11.4 µM]	-	-	-
O=C(/C=C1\NC2(CCCC2)Cc2ccccc21)N1CCOCC1	40µM	-	-	-	-
CC1(C)Cc2c(ccc3ccccc23)/C(=C/C(=O)N2CCCCC2)N1	-	-	-	-	-
Nc1nsc2ccccc12	-	-	32µM	-	-
COc1ccc(CCNC(=O)c2cc(-c3ccc(C)cc3)nc3n[nH]c(-c4ccccc4)c23)cc1OC	-	-	13µM	?	-
Cc1cccn2c(=O)nc(SCC(=O)N3CC(C)OC(C)C3)nc12 (stereo not drawn)	-	-	32µM	.	.
SMILES	TrxR1 inh	TrxR1 substrate	ClpP mod	Apoferritin bind	miR-21 FLuc
COc1ccc(OC)c(/C=N/NC(=O)CC2C(=O)NN=C2C)c1 (stereo not drawn)	-	-	28µM	-	-
COc1ccc(OC)c(/C=N/NC(=O)CCc2ccc(O)c(O)c2)c1	-	-	8.9µM	-	-
COc1ccc(OC)c(/C=N/NC(=O)CCc2c(C)n[nH]c2C)c1	-	-	-	-	-
O=C(Cc1ccccc1)NCCc1csc2nc(-c3ccc(Cl)cc3)nn12	-	-	-	-	-
Cc1cc(C)cc(-n2nnc(-c3nc(-c4ccccc4F)no3)c2C)c1	-	-	-	-	-
Cc1noc(/C=C/c2ccco2)c1S(=O)(=O)N1CCC(C(=O)N2CCc3ccccc3C2)CC1	50µM	-	-	?	-
Cc1ccccc1NC(=O)C1CCN(S(=O)(=O)c2c(C)noc2/C=C/c2ccco2)CC1	-	-	-	-	-
COc1ccc(N2C(=O)CSC23C(=O)N(CC(=O)NC2CCCCC2)c2ccccc23)cc1 (stereo not drawn)	-	-	-	?	-
Oc1cc2c(cc1O)[C@H]1c3ccc(O)c(O)c3OC[C@@]1(O)C2	10µM	-	.	.	.
Oc1ccc2c(c1)OCC1(O)Cc3cc(O)c(O)cc3C21 (stereo not drawn)	4.5µM	-	-	-	.
CC(=O)Oc1ccc2c(c1OC(C)=O)OCC1(O)Cc3c(cc(OC(C)=O)c(OC(C)=O)c3OC(C)=O)C21 (stereo not drawn)	.	.	.	-	.
COc1ccc(CNc2ncnc3c2c(-c2ccccc2)cn3-c2ccccc2)cc1	-	-	25µM	-	-
CCOC(=O)C(CC)Sc1ncnc2c1c(-c1ccccc1)cn2-c1ccc(OC)cc1 (stereo not drawn)	-	-[2.29 µM]	22µM	-	-
Cc1ccc(CNc2ncnc3c2c(-c2ccccc2)cn3-c2ccccc2)cc1	-	-	28µM	-	-
CCc1ccc(NC(=O)C(=O)NCCc2sc(-c3ccc(OC)c(OC)c3)nc2C)cc1	-	-	-	-	-
C=CCSC1=C(C#N)C(c2ccccc2C)CC(=O)N1 (stereo not drawn)	-	-	28µM	-	-
CCN(C(=O)CSc1nc2ccccc2c2nc(CCn3c(C)nc4ccccc43)nn12)c1cccc(C)c1	-	-	-	-	-
O=C(O)CCc1nn2c3ccccc3n(CC(=O)c3ccccc3)c2nc1=O	-	-	32µM	-	-
O=C(O)CCc1nc2ccccc2n(CCc2ccccc2)c1=O	-	-	?	-	-
O=C(O)CCc1nn2c3ccccc3nc2n(CCN2CCCCC2)c1=O	-	-	18µM	-	-
Cc1oc2ncn(CC(C)C)c(=O)c2c1C(=O)NCCCN1CCC(C)CC1	-	-	-	-	-
CC[N+]1(CC)CC2=Cc3c(ccc4ccccc34)CC2C1 (stereo not drawn)	-	-	25µM	-	-
CC1C(=O)N2CCCc3cc(S(=O)(=O)Nc4ccccc4F)cc1c32 (stereo not drawn)	-	-	-	.	.
CC1C(=O)N2CCCc3cc(S(=O)(=O)Nc4ccccc4C(N)=O)cc1c32 (stereo not drawn)	-	-	32µM	.	.
COc1ccccc1NC(=O)Cn1nc(-c2ccc3c(c2)OCCO3)ccc1=O	-	-	-	11µM	-
COc1cccc(-c2ccc(=O)n(CC(=O)Nc3cc4c(cc3NC(C)=O)OCCO4)n2)c1	-	-	-	-	-
Cc1ccc(-c2ccc(=O)n(CC(=O)Nc3ccc(C)cc3Cl)n2)cc1	-	-	-	10µM	-
Cc1ccc(NC(=O)Cn2nc(-c3ccccc3Cl)ccc2=O)c(Br)c1	-	-	-	10µM	-
COc1ccc2cc3cc(C(=O)NCCCN4CCC(C)CC4)oc3nc2c1	50µM	-	-	-	-
COc1ccc(CCNC(=O)Cn2cc(S(=O)(=O)Cc3ccccc3F)c3ccccc32)cc1OC	-	-	-	-	-
